Rango complex inh: qHTS Assay for Inhibitors of Rango (Ran-regulated importin-beta cargo) - Importin beta complex formation; Importin subunit beta-1 (Homo sapiens), Q14974; Rango CFP/YFP FRET sensor + importin beta, 45 min; Potency, µM (doses to about 92.2 µM); 0.031% of 340,000 active; AID 540263, 2011; also: nearly all actives have a fitted effect of over 15% in size
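Inhibition scored from the CFP 486 nm/YFP 530 nm FRET ratio 45 min after adding 0.125 microM importin beta to 50 nM Rango biosensor preincubated 5 min with compound (room temperature, PBS with DTT, Tween-20, BSA). No-importin wells as positive control.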
PKM2 act: qHTS Assay for Activators of Human Muscle isoform 2 Pyruvate Kinase. Pyruvate kinase PKM (Homo sapiens), P14618. purified PKM2, Kinase-Glo ATP luminescence, activation; response scale: 0% is enzyme alone, no compound. Potency, µM (series often up to 57.5 µM), usual class: activators. 0.34% of 260,000 active. AID 1631, 2009; active = well fitted activation curve with a large enough effect; inconclusive = small, poorly fitted or top-dose-only effect; inactive = no such curve, though single readings can be large or run the other way; also: nearly all actives have a fitted effect of over 55% in size
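hPK-M2, >95% pure; 0.1 mM ADP / 0.5 mM PEP final; imidazole pH7.2 buffer w/ 7 mM MgCl2, 50 mM KCl; 1 h RT; Kinase-Glo lum. Intermediate enzyme activity for dual inhibitor/activator qHTS.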
A-T KAP1 phos: qHTS Assay for Identifying a Potential Treatment of Ataxia-Telangiectasia | F2112 A-T fibroblasts, KAP-1 phosphorylation AlphaLISA; neocarzinostatin DNA damage 30 min before lysis | Potency, µM (doses to about 57.5 µM), hits mostly activators | 0.19% of 320,000 active; active = well fitted activation curve with a large enough effect; inconclusive = small, poorly fitted or top-dose-only effect; inactive = no such curve, though single readings can be large or run the other way; also: nearly all actives have a fitted effect of over 45% in size
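hTERT-immortalized A-T patient fibroblasts (F2112), 500 cells/well in OPTI-MEM, 1% FBS, got compounds for 60 min, then NCS for 30 min at 37C. Lysates were then assayed for phospho-KAP-1 by AlphaLISA (anti-pKAP1 donor, anti-KAP1 acceptor beads), 6 hr at 25C.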
IL2 activator: qHTS of IL-2 Activators | IL-2 activation reporter assay, cell-based qHTS; stimulated with anti-CD3/CD4/CD28 beads; in transgenic mouse T cells | activation, % (series mostly up to about 46 µM) | 0.065% of 360,000 active | AID 652025, 2013; in the data active = activation above about 50%; inconclusive = mostly about 30% to 49%
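Readout: EGFP and DsRed signals by fluorescent plate cytometry. Unstimulated transgenic mouse T cells received compound 60 min before antibody-bead stimulation, then incubated 18 h at 37 degrees C.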
Rango dissoc inh: qHTS Assay for Inhibitors of RanGTP induced Rango (Ran-regulated importin-beta cargo) - Importin beta complex dissociation | AID 540253, 2011 | Potency, µM (titrated, usually from 46.1 µM) | 0.071% of 340,000 active | Biochemical FRET Rango-importin beta, RanGTP-induced dissociation; also: nearly all actives have a fitted effect of over 45% in size
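Rango/importin beta premix (0.1/0.25 uM final), PBS + 1 mM DTT + 0.02% Tween-20 + 0.1% BSA; cpd 5 min RT; FRET pre-read; + RanGTP-RCC1 (0.6 uM Ran, 2 mM GTP, 0.2 uM RCC1); 45 min RT; FRET post-read, ex 430, em 486/530 nm.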
Hits are given with their value; n = inactive; u = inconclusive; x = not tested or not shown; [ ] = remark or other dose. The list is not random: actives were taken first. Their share in the collection is about 0.59%. Unless noted, calls follow the shape of the full dose curve.

Protein sequences, listed by entry. Tags and fused reporters are not part of them.
Importin subunit beta-1 (Homo sapiens), Q14974, UniProt Q14974, whole entry, looked up: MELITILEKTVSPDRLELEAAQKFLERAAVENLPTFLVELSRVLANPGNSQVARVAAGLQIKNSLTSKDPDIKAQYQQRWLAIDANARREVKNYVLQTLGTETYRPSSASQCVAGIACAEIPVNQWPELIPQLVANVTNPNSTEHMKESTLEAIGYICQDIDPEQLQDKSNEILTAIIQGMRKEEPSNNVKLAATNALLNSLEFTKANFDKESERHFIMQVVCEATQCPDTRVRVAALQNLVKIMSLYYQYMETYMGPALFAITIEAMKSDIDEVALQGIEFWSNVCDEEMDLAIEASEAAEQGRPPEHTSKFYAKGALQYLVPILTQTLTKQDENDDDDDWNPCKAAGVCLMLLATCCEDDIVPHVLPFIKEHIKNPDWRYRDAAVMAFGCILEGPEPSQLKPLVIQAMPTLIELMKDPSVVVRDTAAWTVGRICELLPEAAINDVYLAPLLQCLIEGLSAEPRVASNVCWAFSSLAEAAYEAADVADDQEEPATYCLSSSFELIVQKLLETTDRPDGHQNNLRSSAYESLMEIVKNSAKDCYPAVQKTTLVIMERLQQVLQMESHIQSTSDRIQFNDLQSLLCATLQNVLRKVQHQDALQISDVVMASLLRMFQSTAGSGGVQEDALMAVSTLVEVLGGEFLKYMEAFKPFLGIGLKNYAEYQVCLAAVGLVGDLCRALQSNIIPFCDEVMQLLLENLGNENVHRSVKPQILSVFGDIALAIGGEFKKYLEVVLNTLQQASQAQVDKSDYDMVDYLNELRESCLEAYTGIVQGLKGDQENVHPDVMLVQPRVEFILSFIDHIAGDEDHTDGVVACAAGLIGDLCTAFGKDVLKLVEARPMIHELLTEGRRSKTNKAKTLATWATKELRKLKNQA
Pyruvate kinase PKM (Homo sapiens), P14618, UniProt P14618, whole entry, looked up: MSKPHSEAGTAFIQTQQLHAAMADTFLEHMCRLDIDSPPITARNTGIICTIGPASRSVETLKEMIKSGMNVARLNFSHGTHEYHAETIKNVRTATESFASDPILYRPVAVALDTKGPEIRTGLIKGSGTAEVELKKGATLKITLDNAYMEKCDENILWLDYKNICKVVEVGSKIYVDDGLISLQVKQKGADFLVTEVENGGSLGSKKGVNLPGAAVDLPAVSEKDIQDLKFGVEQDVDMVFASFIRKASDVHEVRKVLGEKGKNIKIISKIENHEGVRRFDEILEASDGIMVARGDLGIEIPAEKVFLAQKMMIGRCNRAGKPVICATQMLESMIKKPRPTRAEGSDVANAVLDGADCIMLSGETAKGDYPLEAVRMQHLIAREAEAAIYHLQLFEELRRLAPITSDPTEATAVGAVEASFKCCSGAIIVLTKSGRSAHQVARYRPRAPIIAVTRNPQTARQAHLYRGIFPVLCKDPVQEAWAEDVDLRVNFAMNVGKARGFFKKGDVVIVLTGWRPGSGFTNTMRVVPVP

SMILES	Rango complex inh	PKM2 act	A-T KAP1 phos	IL2 activator	Rango dissoc inh
Cc1ccc(NC(=O)Nc2cccnc2)cc1NC(=O)Nc1cccnc1	n	n	1.26µM	n	n
O=C(CNc1n[nH]c(=O)[nH]c1=O)N/N=C/C1CC=CCC1 (stereo unspecified)	n	n	31.6µM	n	n
Cc1cccc(Cn2c(SCC(=O)Nc3ccccc3)nc3c2c(=O)[nH]c(=O)n3C)c1	n	1.41µM	n	n	n
CCN(CC)C(=O)c1ncn2c1c(=O)[nH]c1ccccc12	x	x	x	n	x
O=S(=O)(Nc1ccc2ccccc2n1)c1ccc2c(c1)CCO2	n	11.2µM	n	n	n
Cc1ccc(S(=O)(=O)Nc2ccc3ccccc3n2)cc1	n	n	n	n	n
CCOc1ccc(Cn2nnc(-c3ccc(S(C)(=O)=O)cc3)n2)cc1OCC	n	x	n	n	n
Cc1ccc(Cl)c2c(N=Nc3ccccc3)c(O)[nH]c12	u	n[11.5 µM]	n	169.5	u
C/C(CCc1oc2c(Br)cc(Br)cc2c1-c1ccc(C)o1)=N\O	u	15.8µM	n	n	n
CO[C@@H]1CN(C)C(=O)c2cc(NC(=O)NC3CCCCC3)ccc2OC[C@@H](C)N(CCc2ccccc2)C[C@@H]1C	x	x	x	n	x
COC(=O)c1ccc2c(=O)n(CCN3CCOCC3)c(SCC(=O)c3ccccc3)nc2c1	n	n	17.8µM	n	n
CC(=O)Nc1ccc(OCC(O)Cn2c(C(C)C)nc3ccccc32)cc1 (stereo unspecified)	n	n	n	72.0	n
CCOC(=O)c1c(-c2ccc(C)o2)csc1NC(=O)CN1CCC(C(N)=O)CC1	n	20µM	n	n	n
CCOC(=O)c1c(-c2ccc(C)o2)csc1NC(=O)CN1CCCCC1	n	n	n	n	n
CCOC(=O)c1c(-c2ccc(C)o2)csc1NC(=O)CSc1nncs1	n	8.91µM	n	n	n
CCOC(=O)c1c(-c2ccco2)csc1NC(=O)CSc1nnc(N)s1	u	12.6µM	n	n	n
CNC(=S)N/N=C/c1c(C)c(C(=O)c2ccc(F)cc2)n2ccccc12	n	x	n	83.3	u
CC(=O)Nc1cccc(NC(=O)CSc2ccc(-c3cccnc3)nn2)c1	n	31.6µM	n	n	n
CCOC(=O)Cc1csc(NC(=O)CSc2nnc(C(C)C)n2C)n1	n	n	0.708µM	n	n
CCOC(=O)c1c(NC(=O)/C=C/c2ccc(C)o2)sc(C)c1C	n	n	n	n	u
Cc1ccc(/C=C/C(=O)Nc2sc(C)c(C)c2C(=O)OC(C)C)o1	n	15.8µM	n	n	n
Cc1nn(C)c(Sc2ccccc2N)c1[N+](=O)[O-]	n	11.2µM	n	n	n
COc1ccc(C(=O)NCc2nnc(SCC(=O)Nc3cc(Cl)ccc3OC)o2)cc1	n	x	n	n	n
COc1ccc2nc(N3CCCCC3)c(C#N)cc2c1	u	n	20µM	n	u
COc1ccc2nc(N3CCCC3)c(C#N)cc2c1	u	n	x	n	u
SMILES	Rango complex inh	PKM2 act	A-T KAP1 phos	IL2 activator	Rango dissoc inh
CCCCN1/C(=C/c2ccc3ccccc3[n+]2CC)Sc2ccccc21	46.1µM	n	n	u	n
CCN1CCN(c2ccc(N3CCN(S(=O)(=O)c4ccc(C)c([N+](=O)[O-])c4)CC3)nn2)CC1	n	x	n	n	n
Cc1sc2nc(CN3CCN(c4ccc(O)cc4)CC3)[nH]c(=O)c2c1C	n	1.26µM	n	n	n
O=c1[nH]c(CN2CCN(c3ccccc3)CC2)nc2scc(-c3ccccc3)c12	n	n	n	n	n
CCc1ccc(S(=O)(=O)Nc2c(C)nc3nc[nH]n3c2=O)cc1	n	n	n	n	n
Cc1cc2c(c(=O)o1)C(c1ccc([N+](=O)[O-])o1)C(C#N)=C(N)O2 (stereo unspecified)	u	n	31.6µM	u	n
CCC(CC)C1C(C#N)=C(N)Oc2cc(C)oc(=O)c21 (stereo unspecified)	n	n	n	n	n
Cn1c(OCc2cccnc2)nc2c1c(=O)n(Cc1ccc(Br)cc1)c(=O)n2C	n	20µM	n	n	n
Cn1c(OCc2cccnc2)nc2c1c(=O)n(Cc1ccc(Cl)cc1)c(=O)n2C	n	x	x	n	n
c1ccc(C2=NN(c3ccccc3)C(c3ccco3)C2)cc1 (stereo unspecified)	u	n	15.8µM	n	n
CCC(=O)N1N=C(c2cccs2)CC1c1ccco1 (stereo unspecified)	n	n	n	n	n
c1ccc(N2N=C(c3cccs3)CC2c2ccco2)cc1 (stereo unspecified)	u	n	28.2µM	n	u
Clc1ccc(N2N=C(c3cccs3)CC2c2ccco2)cc1 (stereo unspecified)	u	n	22.4µM	n	u
O=C(Cn1cc(COc2ccc(Cl)c(Cl)c2)nn1)NS(=O)(=O)c1ccccc1OC(F)(F)F	x	x	x	n	x
CCOC(=O)c1c(CSc2ccsc2)n(C)c2cc(Br)c(O)c(CN(C)C)c12	n	n	8.91µM	n	n
Cc1ccc(S(=O)(=O)CC(=O)c2ccc(C)c([N+](=O)[O-])c2)cc1	n	n	n	n	n
Cc1ccc(S(=O)(=O)CC(=O)c2ccc([N+](=O)[O-])cc2)cc1	n	22.4µM	n	n	n
O=C(COc1ccc(CNC[C@H]2O[C@@H](n3ccc(=O)[nH]c3=O)[C@H](O)[C@@H]2O)cc1)Nc1nccs1	x	x	x	n	x
COc1ccn(C2CCCCO2)c(=O)n1 (stereo unspecified)	n	x	x	n	n
CNC(=S)N(CCc1c(C)[nH]c2ccc(Cl)cc12)Cc1cccnc1	n	x	0.891µM	n	n
O=C(COC(=O)c1ccccc1Cl)NC1CCCCCC1	n	x	n	n	n
O=C(COC(=O)c1cccc(Cl)c1Cl)NC1CCCC1	n	x	17.8µM	n	n
O=CNc1ccc2c3c(cccc13)-c1ccccc1-2	u	x	x	n	u
NC(=O)c1ccc2nc(NC(=O)c3ccc(N)cc3)sc2c1	n	n	35.5µM	n	n
Cc1cc(NC(=O)CSc2nc3c(cc2C#N)CCC3)no1	n	2.51µM	n	n	n
Cc1cc(C)c2nc(SCC(=O)Nc3cc(C)on3)c(C#N)cc2c1	u	1.12µM	n	n	n
Cc1cc(NC(=O)CSc2nc3c(cc2C#N)CCCC3)no1	u	u	n	n	n
CCCCNC(=O)C1C(c2ccc(OC)cc2)=Nc2ccccc2N1C(=O)c1ccncc1 (stereo unspecified)	x	x	x	n	x
CCN(CC)CCCNc1ccc2ncn3c4ccc(O)cc4c(=O)c1c23	u	x	x	123.5	u

Screening data as filed in PubChem.
